# Measured values taken from ChEMBL document CHEMBL1147515, “Nickel(II) and cobalt(II) complexes of hydroxyl-substituted triazamacrocyclic ligand as potential antitumor agents” (2004).
# Columns and labels:
# Conditions in all cases: Homo sapiens
# Bel-7402 [1] = assay: Percentage of growth inhibition of BEL-7402 cells treated for 48 hr at 10E-5 M/L and incubated with 5 g/L MTT for 4 h.; type: functional, cell-based
# Bel-7402 [2] = assay: Percentage of growth inhibition of BEL-7402 cells treated for 48 hr at 10E-3 M/L and incubated with 5 g/L MTT for 4 h.; type: functional
# HXO-RB44 cell line [3] = assay: Percentage of growth inhibition of HXO-RB44 cells treated for 48 hr at 10E-4 M/L and incubated with 5 g/L MTT for 4 h.; type: functional
# Bel-7402 [4] = assay: Percentage of growth inhibition of BEL-7402 cells treated for 48 hr at 10E-4 M/L and incubated with 5 g/L MTT for 4 h.; type: functional
# HXO-RB44 cell line [5] = assay: Percentage of growth inhibition of HXO-RB44 cells treated for 48 hr at 10E-5 M/L and incubated with 5 g/L MTT for 4 h.; type: functional
# HXO-RB44 cell line [6] = assay: Percentage of growth inhibition of HXO-RB44 cells treated for 48 hr at 10E-6 M/L and incubated with 5 g/L MTT for 4 h.; type: functional
substance,measurement,setting,value
NICKEL (II) ION,inhibition,Bel-7402 [1],1%
same,inhibition,Bel-7402 [2],89%
same,inhibition,HXO-RB44 cell line [3],6%
same,inhibition,Bel-7402 [4],3%
same,inhibition,HXO-RB44 cell line [5],2%
same,inhibition,HXO-RB44 cell line [6],1%
